Tests used:
[1] = system: ABL kinase error-prone mutant library; assay: ABL error-prone library screening by FACS in presence of inhibitor; assay type: cell-based, human; settings: inhibitor-treated cultures (25 μM)
[2] = system: BCR-ABL Q252H Ba/F3 cells; assay: cells; settings: Mus musculus, BaF3
[3] = system: BCR-ABL V299L Ba/F3 cells; assay: cells; settings: Mus musculus, BaF3
[4] = system: BCR-ABL T315I Ba/F3 cells; assay: cells; settings: Mus musculus, BaF3
[5] = system: BCR-ABL M244V Ba/F3 cells; assay: cells; settings: Mus musculus, BaF3
[6] = system: BCR-ABL F359V Ba/F3 cells; assay: cells; settings: Mus musculus, BaF3
[7] = system: BCR-ABL G303R Ba/F3 cells; assay: cells; settings: Mus musculus, BaF3
[8] = system: BCR-ABL M351T Ba/F3 cells; assay: cells; settings: Mus musculus, BaF3
[9] = system: BCR-ABL H396R Ba/F3 cells; assay: cells; settings: Mus musculus, BaF3
[10] = system: BCR-ABL L384M Ba/F3 cells; assay: Ba/F3 BCR-ABL cell viability (CellTiter Glo), IC50; settings: Mus musculus, BaF3

IC50 [2]: 3.4 to 5.6 nM | IC50 [3]: 15.8 to 44.1 nM | IC50 [4]: ≥ 137 nM | IC50 [5]: 1.3 to 3.6 nM | IC50 [6]: 2.2 to 2.7 nM | IC50 [7]: 41.9 nM | IC50 [8]: 1.1 to 1.6 nM | IC50 [9]: 1.3 to 3 nM | IC50 [10]: 4 nM
Compound: Cc1nc(Nc2ncc(C(=O)Nc3c(C)cccc3Cl)s2)cc(N2CCN(CCO)CC2)n1 [Dasatinib]
fraction of PE-positive cells ([1]; post-sort 6 sample): 87.7% | fraction of PE-positive cells ([1]; unsorted pool): 1.8%

From patent US11236380B2, “Methods for predicting kinase inhibitor resistance” (Research Development Foundation, priority 2017, dated 2022)
